Experimental findings from US6936585B2, “Corticotropin releasing factor 2 receptor agonists” (priority 2002, dated 2005) are described below.

One experiment addresses T1, CRF2R (Homo sapiens, UniProt Q13324).
T1 sequence (Q13324 1-411): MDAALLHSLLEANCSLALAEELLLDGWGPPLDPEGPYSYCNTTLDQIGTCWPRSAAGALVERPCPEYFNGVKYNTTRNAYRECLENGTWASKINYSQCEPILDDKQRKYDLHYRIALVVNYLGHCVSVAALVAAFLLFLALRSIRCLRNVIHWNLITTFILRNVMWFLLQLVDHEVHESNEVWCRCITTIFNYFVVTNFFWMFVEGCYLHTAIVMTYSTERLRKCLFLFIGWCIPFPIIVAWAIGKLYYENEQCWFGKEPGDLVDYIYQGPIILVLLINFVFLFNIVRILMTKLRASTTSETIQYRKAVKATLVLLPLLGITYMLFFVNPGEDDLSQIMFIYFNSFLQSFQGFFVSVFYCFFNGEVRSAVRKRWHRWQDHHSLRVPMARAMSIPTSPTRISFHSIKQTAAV
The experiment can be described thus: CRF2R agonist activation (EC50 / Emax), called comparative CRF binding. In kind it is cell-based. The method in brief: (§1)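 Agonism is scored from cAMP rise, assayed in lysates or through CRE-driven reporter expression, after peptide contact with cells bearing human CRF2R or CRF1R, compared against vehicle-treated cells.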

The next experiment addresses T2, CRF1R (Homo sapiens, UniProt P34998).
T2 sequence (P34998 24-415): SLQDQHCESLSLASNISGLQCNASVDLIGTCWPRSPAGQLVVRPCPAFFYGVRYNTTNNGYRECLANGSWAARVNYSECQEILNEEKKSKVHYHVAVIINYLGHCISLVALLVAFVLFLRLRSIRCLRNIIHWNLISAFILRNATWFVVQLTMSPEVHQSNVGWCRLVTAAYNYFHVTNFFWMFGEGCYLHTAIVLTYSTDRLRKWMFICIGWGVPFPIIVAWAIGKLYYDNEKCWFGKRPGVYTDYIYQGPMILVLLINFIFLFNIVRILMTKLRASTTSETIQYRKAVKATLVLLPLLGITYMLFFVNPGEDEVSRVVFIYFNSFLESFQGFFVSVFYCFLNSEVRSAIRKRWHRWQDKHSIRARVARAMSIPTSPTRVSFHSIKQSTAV
The experiment can be described thus: CRF1R agonist activation (EC50 / Emax), called comparative CRF binding. It counts as cell-based. Put shortly: as §1

Each structure is given as a SMILES string. Read-outs that look alike come from different tables or passages of the source.

One may read the Emax as the size of the effect at its maximum, as opposed to the concentration needed. Take `CC[C@H](C)[C@H](N)C(=O)N[C@H](C(=O)N[C@@H](CC(C)C)C(=O)N[C@@H](CO)C(=O)N[C@@H](CC(C)C)C(=O)N[C@@H](CC(=O)O)C(=O)N[C@H](C(=O)N1CCC[C@H]1C(=O)N[C@H](C(=O)NCC(=O)N[C@@H](CC(C)C)C(=O)N[C@@H](CC(C)C)C(=O)N[C@@H](CCC(N)=O)C(=O)N[C@H](C(=O)N[C@@H](CC(C)C)C(=O)N[C@@H](CC(C)C)C(=O)N[C@@H](CCC(=O)O)C(=O)N[C@@H](CCC(N)=O)C(=O)N[C@@H](C)C(=O)N[C@@H](CCCNC(=N)N)C(=O)N[C@@H](C)C(=O)N[C@@H](CCCNC(=N)N)C(=O)N[C@@H](C)C(=O)N[C@@H](C)C(=O)N[C@@H](CCCNC(=N)N)C(=O)N[C@@H](CCC(=O)O)C(=O)N[C@@H](CCC(N)=O)C(=O)N[C@@H](C)C(=O)N[C@H](C(=O)N[C@H](C(=O)N[C@@H](CC(N)=O)C(=O)N[C@@H](C)C(=O)N[C@@H](CCCNC(=N)N)C(=O)N[C@H](C(=O)N[C@@H](CC(C)C)C(=O)N[C@@H](C)C(=O)N[C@@H](CCCNC(=N)N)C(=O)N[C@H](C(N)=O)C(C)C)[C@@H](C)CC)[C@@H](C)O)[C@@H](C)O)[C@@H](C)CC)[C@@H](C)CC)C(C)C)C(C)C` [hUroII, human urocortin II, reference compound]: the Emax at CRF2R (Emax, read-out: CRF2R (Emax %)) was found to be 98%; on CRF1R (Emax, read-out: CRF1R (Emax %)), 9%.
For `CC[C@H](C)[C@H](NC(=O)[C@@H](NC(=O)[C@H](CC(=O)O)NC(=O)[C@H](CC(C)C)NC(=O)[C@H](CC(C)C)NC(=O)[C@H](CC(C)C)NC(=O)[C@H](C)NC(=O)[C@H](CC(N)=O)NC(=O)[C@H](CC(N)=O)NC(=O)[C@H](C)NC(=O)[C@H](C)NC(=O)[C@H](CCC(N)=O)NC(=O)[C@H](CCC(N)=O)NC(=O)[C@H](CCCCN)NC(=O)[C@H](CCC(=O)O)NC(=O)[C@H](CCCCN)NC(=O)[C@H](CCC(=O)O)NC(=O)[C@H](CCC(N)=O)NC(=O)[C@H](CCCCN)NC(=O)[C@H](CCC(=O)O)NC(=O)[C@@H](NC(=O)[C@H](CCC(=O)O)NC(=O)[C@@H](NC(=O)[C@H](CCSC)NC(=O)[C@H](CCCCN)NC(=O)[C@H](CCCNC(=N)N)NC(=O)[C@H](CC(C)C)NC(=O)[C@H](CC(C)C)NC(=O)[C@H](Cc1c[nH]c2ccccc12)NC(=O)[C@H](Cc1ccc(O)cc1)NC(=O)[C@@H]1CCCN1C(=O)[C@H](CC(C)C)NC(=O)[C@H](CC(=O)O)NC(=O)[C@@H](NC(=O)[C@H](CO)NC(=O)[C@@H](NC(=O)[C@@H]1CCCN1C(=O)[C@@H]1CCCN1C(=O)CNC(=O)[C@@H]1CCC(=O)N1)[C@@H](C)CC)[C@@H](C)CC)[C@@H](C)CC)[C@@H](C)CC)[C@@H](C)O)C(N)=O` [compound 310], the Emax on CRF2R (read-out: CRF2R Emax) turned out to be 87.5%; on CRF1R (read-out: CRF1R Emax) it was 45.3%.
On to `CC[C@H](C)[C@H](NC(=O)[C@H](CCCNC(=N)N)NC(=O)[C@H](C)NC(=O)[C@H](CC(N)=O)NC(=O)[C@@H](NC(=O)[C@@H](NC(=O)[C@H](C)NC(=O)[C@H](CCC(N)=O)NC(=O)[C@H](CCC(N)=O)NC(=O)[C@H](CCCCN)NC(=O)[C@H](CCC(=O)O)NC(=O)[C@H](CCCCN)NC(=O)[C@H](CCC(=O)O)NC(=O)[C@H](CCC(N)=O)NC(=O)[C@H](CCCCN)NC(=O)[C@H](CCC(=O)O)NC(=O)[C@@H](NC(=O)[C@H](CCC(=O)O)NC(=O)[C@@H](NC(=O)[C@H](CCSC)NC(=O)[C@H](CCCCN)NC(=O)[C@H](CCCNC(=N)N)NC(=O)[C@H](CC(C)C)NC(=O)[C@H](CC(C)C)NC(=O)[C@H](Cc1ccc(O)cc1)NC(=O)[C@H](CC(C)C)NC(=O)[C@@H]1CCCN1C(=O)[C@H](CC(C)C)NC(=O)[C@H](CC(=O)O)NC(=O)[C@@H](NC(=O)[C@H](CO)NC(=O)[C@@H](NC(=O)[C@@H]1CCCN1C(=O)[C@@H]1CCCN1C(=O)CNC(=O)[C@@H]1CCC(=O)N1)[C@@H](C)CC)[C@@H](C)CC)[C@@H](C)CC)[C@@H](C)CC)[C@@H](C)O)[C@@H](C)O)C(=O)N[C@@H](CC(C)C)C(=O)N[C@@H](C)C(=O)N[C@@H](CCCNC(=N)N)C(=O)N[C@H](C(N)=O)C(C)C` [compound 353], for which the Emax on CRF2R (read-out: CRF2R Emax) amounted to 89.9%; at CRF1R (read-out: CRF1R Emax) it was 92.2%.
For `CC[C@H](C)[C@H](NC(=O)[C@@H](NC(=O)[C@H](C)NC(=O)[C@H](CC(C)C)NC(=O)[C@H](CC(C)C)NC(=O)[C@H](CC(C)C)NC(=O)[C@H](C)NC(=O)[C@H](CC(N)=O)NC(=O)[C@H](CC(N)=O)NC(=O)[C@H](C)NC(=O)[C@H](C)NC(=O)[C@H](CCC(N)=O)NC(=O)[C@H](CCC(N)=O)NC(=O)[C@H](CCCCN)NC(=O)[C@H](CCC(=O)O)NC(=O)[C@H](CCCCN)NC(=O)[C@H](CCC(=O)O)NC(=O)[C@H](CCC(N)=O)NC(=O)[C@H](CCCCN)NC(=O)[C@H](CCC(=O)O)NC(=O)[C@@H](NC(=O)[C@H](CCC(=O)O)NC(=O)[C@@H](NC(=O)[C@@H](NC(=O)[C@H](CCCCN)NC(=O)[C@H](CCCNC(=N)N)NC(=O)[C@H](CC(C)C)NC(=O)[C@H](CC(C)C)NC(=O)[C@H](CCC(N)=O)NC(=O)[C@H](Cc1ccccc1)NC(=O)[C@@H]1CCCN1C(=O)[C@H](CC(C)C)NC(=O)[C@H](CC(=O)O)NC(=O)[C@@H](NC(=O)[C@H](CO)NC(=O)[C@@H](NC(=O)[C@@H]1CCCN1C(=O)[C@@H]1CCCN1C(=O)CNC(=O)[C@@H]1CCC(=O)N1)[C@@H](C)CC)[C@@H](C)CC)C(C)C)[C@@H](C)CC)[C@@H](C)CC)[C@@H](C)O)C(N)=O` [compound 352], in that order: 83.7% and 82.6%.
A word on the EC50: it is the concentration at which the effect is half-maximal. As for `CC[C@H](C)[C@H](NC(=O)[C@@H](NC(=O)[C@H](C)NC(=O)[C@H](CC(C)C)NC(=O)[C@H](CC(C)C)NC(=O)[C@H](CC(C)C)NC(=O)[C@H](C)NC(=O)[C@H](CC(N)=O)NC(=O)[C@H](CC(N)=O)NC(=O)[C@H](C)NC(=O)[C@H](C)NC(=O)[C@H](CCC(N)=O)NC(=O)[C@H](CCC(N)=O)NC(=O)[C@H](CCCCN)NC(=O)[C@H](CCC(=O)O)NC(=O)[C@H](CCCCN)NC(=O)[C@H](CCC(=O)O)NC(=O)[C@H](CCC(N)=O)NC(=O)[C@H](CCCCN)NC(=O)[C@H](CCC(=O)O)NC(=O)[C@@H](NC(=O)[C@H](CCC(=O)O)NC(=O)[C@@H](NC(=O)[C@@H](NC(=O)[C@H](CCCCN)NC(=O)[C@H](CCCNC(=N)N)NC(=O)[C@H](CC(C)C)NC(=O)[C@H](CC(C)C)NC(=O)[C@H](Cc1c[nH]cn1)NC(=O)[C@H](Cc1ccc(O)cc1)NC(=O)[C@@H]1CCCN1C(=O)[C@H](CC(C)C)NC(=O)[C@H](CC(=O)O)NC(=O)[C@@H](NC(=O)[C@H](CO)NC(=O)[C@@H](NC(=O)[C@@H]1CCCN1C(=O)[C@@H]1CCCN1C(=O)CNC(=O)[C@@H]1CCC(=O)N1)[C@@H](C)CC)[C@@H](C)CC)C(C)C)[C@@H](C)CC)[C@@H](C)CC)[C@@H](C)O)C(N)=O` [compound 313], the values for the concentration for a half-maximal effect (EC50) at CRF2R and on CRF1R (CRF1R EC50) were 11.1 nM and 704 nM, respectively. In addition, the Emax at CRF2R (read-out: CRF2R Emax) is 95%; at CRF1R (read-out: CRF1R Emax), 87.1%.
Take `CC[C@H](C)[C@H](NC(=O)[C@@H](NC(=O)[C@H](CC(=O)O)NC(=O)[C@H](CC(C)C)NC(=O)[C@H](CC(C)C)NC(=O)[C@H](CC(C)C)NC(=O)[C@H](CCCNC(=N)N)NC(=O)[C@H](CC(N)=O)NC(=O)[C@H](CC(N)=O)NC(=O)[C@H](C)NC(=O)[C@H](C)NC(=O)[C@H](CCC(N)=O)NC(=O)[C@H](CCC(N)=O)NC(=O)[C@H](CCCCN)NC(=O)[C@H](CCC(=O)O)NC(=O)[C@H](CCCCN)NC(=O)[C@H](CCC(=O)O)NC(=O)[C@H](CCC(N)=O)NC(=O)[C@H](CCCCN)NC(=O)[C@H](CCC(=O)O)NC(=O)[C@@H](NC(=O)[C@H](CCC(=O)O)NC(=O)[C@@H](NC(=O)[C@H](CCSC)NC(=O)[C@H](CCCCN)NC(=O)[C@H](CCCNC(=N)N)NC(=O)[C@H](CC(C)C)NC(=O)[C@H](CC(C)C)NC(=O)[C@H](C)NC(=O)[C@H](Cc1ccc(O)cc1)NC(=O)[C@@H]1CCCN1C(=O)[C@H](CC(C)C)NC(=O)[C@H](CC(=O)O)NC(=O)[C@@H](NC(=O)[C@H](CO)NC(=O)[C@@H](NC(=O)[C@@H]1CCCN1C(=O)[C@@H]1CCCN1C(=O)CNC(=O)[C@@H]1CCC(=O)N1)[C@@H](C)CC)[C@@H](C)CC)[C@@H](C)CC)[C@@H](C)CC)[C@@H](C)O)C(N)=O` [compound 309]: the values for the Emax at CRF2R (read-out: CRF2R Emax) and at CRF1R (read-out: CRF1R Emax) were 99.9% and 96.3%, respectively.
